Assay results: paper PMC6579712 (Xenobiotica; the fate of foreign compounds in biological …, 2018)

Legend:
[1] = ARV concentrations in brain tissue, CSF and plasma by LC-MS/MS, NHPs; conditions: NHP
[2] = IR-MALDESI mass spectrometry imaging of EFV in NHP brain tissue; type: in vivo, rhesus macaques

SMILES: O=C1Nc2ccc(Cl)cc2[C@@](C#CC2CC2)(C(F)(F)F)O1 [EFV, efavirenz]
- fold higher brain tissue concentration than other ARVs [1]: 9- to 36 fold
- fold lower brain tissue concentration in infected NHPs ([2]; infected vs uninfected NHPs): 7 fold
- fold higher EFV concentration in white matter relative to grey matter ([2]; uninfected NHPs, MSI): 2 fold
